# From PubChem BioAssay AID1439 (NMMLSC, 2008)
# By UniProt entry, the sequences of proteins in these tests, tags left out.
# UniProt P09471, whole entry: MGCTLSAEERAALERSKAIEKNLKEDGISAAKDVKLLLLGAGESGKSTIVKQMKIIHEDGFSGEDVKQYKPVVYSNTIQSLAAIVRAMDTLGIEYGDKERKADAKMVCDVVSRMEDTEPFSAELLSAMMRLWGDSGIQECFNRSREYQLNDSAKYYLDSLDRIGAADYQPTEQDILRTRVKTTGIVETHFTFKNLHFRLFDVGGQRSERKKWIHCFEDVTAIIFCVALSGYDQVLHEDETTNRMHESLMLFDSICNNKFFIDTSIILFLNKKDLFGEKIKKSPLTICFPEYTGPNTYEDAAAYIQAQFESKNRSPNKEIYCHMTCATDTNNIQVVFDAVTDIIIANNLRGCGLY
# This is a selection; strong and weak results do not stand in their true shares. Inconclusive results are not listed. Active and inactive are the calls of the source. Cut-off read from the data, not from the text of the source: active = binding response below about 49% or above about 150%; inconclusive = no clear call, values can overlap the other calls; inactive = in between.
# Biological target: Guanine nucleotide-binding protein G(o) subunit alpha (Homo sapiens) (UniProt P09471)
# Assay: compounds changing RGS7 association with Galphao – biochemical, multiplexed bead flow cytometry, primary screen (AID 1439);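 note: fluorescent Galphao held in activated GDP-AlF4 state binding bead-coupled RGS7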
# Conditions: at 10 µM, actives lie on both sides
row,SMILES,binding response (% of control)
1,COc1ccc(NC2CCN(CCc3ccccc3)CC2)c(OC)c1,inactive: 103%
2,O=C(NCC1(N2CCOCC2)CCCCC1)c1cc2ccccc2o1,active: 177%
3,CCOC(=O)N1CCC(Nc2ccc(OC)cc2)CC1,inactive: 99.2%
4,O=C(OC1CN2CCC1CC2)C1c2ccccc2Oc2ccccc21 (stereo not drawn),inactive: 101%
5,COc1ccc(C(=O)NCC2(N3CCCCC3)CCCCC2)c(OC)c1OC,inactive: 100%
6,COc1ccc(CN(CCCl)CCCl)cc1Cl,inactive: 94.2%
7,CC(C)c1ccc(NC2CCN(C(=O)OC(C)(C)C)CC2)cc1,inactive: 99%
8,COc1ccc(NC2CCN(C(=O)OC(C)(C)C)CC2)cc1,inactive: 96.5%
9,CN1CCN(CCOC(=O)C(O)(c2ccccc2)c2ccccc2)CC1,inactive: 99.8%
10,O=C(NCC1(N2CCOCC2)CCCCC1)c1cc(=O)[nH]c2ccccc12,inactive: 103%
11,O=C(NCC1(N2CCCCC2)CCCCC1)c1cccc([N+](=O)[O-])c1,inactive: 101%
12,N#CC1(Nc2ccccc2)CCN(CCc2ccccc2)CC1,inactive: 100%
13,c1ccc(CN2CCC(Nc3ccccc3)CC2)cc1,inactive: 98.4%
14,N#Cc1ccc(C(=O)NCC2(N3CCCCC3)CCCCC2)cc1,inactive: 103%
15,N/C(=N\O)c1c(N)no[n+]1[O-],inactive: 99.6%
16,O=C(OC1CN2CCC1CC2)C1c2ccccc2C=Cc2ccccc21 (stereo not drawn),inactive: 102%
17,COc1ccc(C(=O)NCC2(N3CCOCC3)CCCCC2)cc1OC,inactive: 133%
18,CCC(CO)(C(=O)OC1CN2CCC1CC2)c1ccccc1 (stereo not drawn),inactive: 98.9%
19,CCOc1ncccc1C(=O)NCC1(N2CCOCC2)CCCCC1,inactive: 122%
20,CC(C)(C)OC(=O)N1CCC(Nc2ccccc2)CC1,inactive: 96%
21,CCN1CCC(Nc2cccc(F)c2)CC1,inactive: 98.7%
22,CN(C)c1ccc(C(=O)NCC2(N3CCCCC3)CCCCC2)cc1,inactive: 98%
23,Fc1ccccc1NC1CCN(Cc2ccccc2)CC1,inactive: 95.2%
